Test results from PubChem BioAssay AID1347419 (Sanford-Burnham Center for Chemical Genomics, 2020).
The entries are a selection whose mix differs from that of the whole data set. Calls of active or inactive are those of the source.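 Rule for the calls: active = Z-score of -3 or lower, scaled per plate to the spread of control and sample wells; inactive = z-score above -3.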

Protein sequences, listed by entry. Tags and fused reporters are not part of them.
UniProt Q14289, whole entry, looked up: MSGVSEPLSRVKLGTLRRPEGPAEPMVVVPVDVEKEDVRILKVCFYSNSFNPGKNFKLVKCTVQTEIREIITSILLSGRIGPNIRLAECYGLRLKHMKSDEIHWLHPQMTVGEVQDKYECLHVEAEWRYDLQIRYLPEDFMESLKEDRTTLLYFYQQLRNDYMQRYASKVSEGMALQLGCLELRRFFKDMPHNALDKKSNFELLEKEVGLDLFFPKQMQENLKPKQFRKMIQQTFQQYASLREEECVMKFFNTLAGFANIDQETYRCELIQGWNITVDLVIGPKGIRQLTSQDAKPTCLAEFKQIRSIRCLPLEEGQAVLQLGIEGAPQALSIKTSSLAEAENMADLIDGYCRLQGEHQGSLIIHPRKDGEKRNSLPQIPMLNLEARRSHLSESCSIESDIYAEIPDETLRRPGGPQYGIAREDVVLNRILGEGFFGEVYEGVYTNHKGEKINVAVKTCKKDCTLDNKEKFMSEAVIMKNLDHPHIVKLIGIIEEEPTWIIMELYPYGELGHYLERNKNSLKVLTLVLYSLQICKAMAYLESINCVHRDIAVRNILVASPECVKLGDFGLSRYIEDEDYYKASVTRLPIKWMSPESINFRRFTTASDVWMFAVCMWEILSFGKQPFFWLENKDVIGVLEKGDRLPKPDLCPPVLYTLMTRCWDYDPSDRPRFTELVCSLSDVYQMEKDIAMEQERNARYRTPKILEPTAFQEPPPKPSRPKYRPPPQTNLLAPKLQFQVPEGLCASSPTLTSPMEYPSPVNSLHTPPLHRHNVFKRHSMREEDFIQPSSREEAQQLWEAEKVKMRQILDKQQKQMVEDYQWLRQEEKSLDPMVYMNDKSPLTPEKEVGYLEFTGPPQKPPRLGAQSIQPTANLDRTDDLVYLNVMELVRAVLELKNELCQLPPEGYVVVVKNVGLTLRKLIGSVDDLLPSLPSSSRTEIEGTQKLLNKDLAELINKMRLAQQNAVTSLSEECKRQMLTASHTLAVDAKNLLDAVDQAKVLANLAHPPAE

biological target: Protein-tyrosine kinase 2-beta (Homo sapiens) (UniProt Q14289); assay: antagonists of Pyk2 self-association, primary screen, Q293 cells, FERM NanoBiT luminescence, HTS (AID 1347419); parameters: dose or concentration left out as unconfirmed; details: stronger effect = lower value;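 note: the deposit names both 25 µM and 10 µM; negative z-score means lost luminescence so less FERM oligomerization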

Question: Which z-score does the source give for `CCC(CO)(C(=O)OC1CN2CCC1CC2)c1ccccc1` (stereo unspecified) here?
Answer: inactive: 1.37

Question: With `CCOc1ncccc1C(=O)NCC1(N2CCOCC2)CCCCC1` as the compound, how does the z-score read?
Answer: inactive: 1

Question: How did the z-score turn out when `Fc1ccccc1NC1CCN(Cc2ccccc2)CC1` was run?
Answer: inactive: 0.84

Question: With `c1ccc(CN2CCC(Nc3ccccc3)CC2)cc1` as the compound, how does the z-score read?
Answer: inactive: 1.19

Question: `N/C(=N\O)c1c(N)no[n+]1[O-]` was tested. Which z-score did it give?
Answer: inactive: 0.58

Question: How did the z-score turn out when `CN1CCC(Nc2cccc(F)c2)CC1` was run?
Answer: inactive: 1.59

Question: For `O=C(NCC1(N2CCOCC2)CCCCC1)c1cc(=O)[nH]c2ccccc12`, which z-score is on record?
Answer: inactive: 0.68

Question: For `N#CC1(Nc2ccccc2)CCN(CCc2ccccc2)CC1`, which z-score is on record?
Answer: inactive: -0.13

Question: Which z-score does the source give for `COc1ccc(NC2CCN(CCc3ccccc3)CC2)c(OC)c1` here?
Answer: inactive: -0.33

Question: With `O=C(NCC1(N2CCOCC2)CCCCC1)c1cc2ccccc2o1` as the compound, how does the z-score read?
Answer: inactive: -0.86

Question: Which z-score does the source give for `O=C(OC1CN2CCC1CC2)C1c2ccccc2Oc2ccccc21` (stereo unspecified) here?
Answer: inactive: -0.32
